Broadly, the IC50 is the midpoint of a concentration-inhibition curve.

The assay has as its target T1, Kinesin-like protein KIF11 (Homo sapiens, UniProt P52732).
T1 sequence (P52732 whole entry): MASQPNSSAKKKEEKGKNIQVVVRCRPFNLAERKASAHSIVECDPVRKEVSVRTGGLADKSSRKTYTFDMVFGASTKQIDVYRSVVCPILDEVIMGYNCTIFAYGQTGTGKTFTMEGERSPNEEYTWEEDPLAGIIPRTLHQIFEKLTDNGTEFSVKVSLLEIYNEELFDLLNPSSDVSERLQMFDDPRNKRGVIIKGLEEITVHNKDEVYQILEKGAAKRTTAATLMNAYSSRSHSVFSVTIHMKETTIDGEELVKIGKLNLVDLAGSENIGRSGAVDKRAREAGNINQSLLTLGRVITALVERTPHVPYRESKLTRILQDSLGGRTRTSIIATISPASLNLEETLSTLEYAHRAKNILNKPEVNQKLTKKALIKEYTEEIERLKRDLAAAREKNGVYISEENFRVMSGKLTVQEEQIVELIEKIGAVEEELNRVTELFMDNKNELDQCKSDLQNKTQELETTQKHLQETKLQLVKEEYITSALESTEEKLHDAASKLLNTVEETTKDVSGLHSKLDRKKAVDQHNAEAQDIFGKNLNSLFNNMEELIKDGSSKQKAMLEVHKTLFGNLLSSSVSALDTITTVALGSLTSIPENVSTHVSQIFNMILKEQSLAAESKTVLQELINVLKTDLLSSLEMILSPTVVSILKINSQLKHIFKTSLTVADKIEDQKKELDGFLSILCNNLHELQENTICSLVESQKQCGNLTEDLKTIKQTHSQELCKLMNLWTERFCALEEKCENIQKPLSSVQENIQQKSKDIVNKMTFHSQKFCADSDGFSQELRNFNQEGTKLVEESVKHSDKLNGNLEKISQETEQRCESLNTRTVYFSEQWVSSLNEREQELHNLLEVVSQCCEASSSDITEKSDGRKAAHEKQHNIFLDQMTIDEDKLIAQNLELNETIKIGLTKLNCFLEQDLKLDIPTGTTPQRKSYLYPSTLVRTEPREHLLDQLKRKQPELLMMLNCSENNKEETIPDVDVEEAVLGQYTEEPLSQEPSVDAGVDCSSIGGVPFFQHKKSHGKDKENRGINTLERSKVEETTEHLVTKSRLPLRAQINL
The assay can be described thus: Inhibition of KSP.

As for `N[C@H](C(=O)N1CC(c2cc(F)ccc2F)=C[C@H]1c1ccccc1)C1CC1`, half-maximal inhibition (IC50) required 2 nM. This lies in the single-digit nanomolar range.
`CN(C(=O)N1CC(c2cc(F)ccc2F)=C[C@H]1c1ccccc1)C1CCNCC1` returned an IC50 of 2.6 nM.

(Values after ChEMBL document CHEMBL1146123, “Kinesin spindle protein (KSP) inhibitors. Part 2: the design, synthesis, and characterization of 2,4-diaryl-2,5-dihydropyrrole inhibitors of the mitotic kinesin KSP” (Bioorg Med Chem Lett, 2006).)
